PubChem BioAssay AID1239 (SRMLSC, 2008)
The list shows a part of the results, in another mix than the full data. Active and inactive are the calls of the source. No stated cut-off is given here; in the data, active means fold change above about 3.3; inconclusive means no clear call, values can overlap the other calls; inactive means below that.

Assay: activators of NF-kB expression in neurons, primary screen, cell-based, HTS (AID 1239)
Details: human neuronal cells, NF-kB reporter expression; at 12.5 µM; active compounds read high

Question: Which fold change does the source give for `CN1CCN(CCOC(=O)C(O)(c2ccccc2)c2ccccc2)CC1` here?
Answer: The fold change was inactive: 0.88.

Question: With `COc1ccc(NC2CCN(C(=O)OC(C)(C)C)CC2)cc1` as the molecule, how does the fold change read?
Answer: The fold change was inactive: 1.26.

Question: Which fold change does the source give for `O=C(NCC1(N2CCOCC2)CCCCC1)c1cc(=O)[nH]c2ccccc12` here?
Answer: Its fold change is inactive: 1.2.

Question: Which fold change does the source give for `O=C(NCC1(N2CCCCC2)CCCCC1)c1cccc([N+](=O)[O-])c1` here?
Answer: Its fold change is inactive: 0.91.

Question: Which fold change does the source give for `N#CC1(Nc2ccccc2)CCN(CCc2ccccc2)CC1` here?
Answer: Its fold change is inactive: 1.33.

Question: For `CN(C)c1cccc(C(=O)NCC2(N3CCCCC3)CCCCC2)c1`, which fold change is on record?
Answer: The fold change was inactive: 0.99.

Question: For `COc1ccc(CN(CCCl)CCCl)cc1Cl`, which fold change is on record?
Answer: The fold change was inactive: 1.27.

Question: With `CC(C)c1ccc(NC2CCN(C(=O)OC(C)(C)C)CC2)cc1` as the molecule, how does the fold change read?
Answer: The fold change was inactive: 1.27.

Question: Which fold change does the source give for `O=C(NCC1(N2CCOCC2)CCCCC1)c1cc2ccccc2o1` here?
Answer: The fold change was inactive: 0.91.

Question: Which fold change does the source give for `CCOC(=O)N1CCC(Nc2ccc(OC)cc2)CC1` here?
Answer: The fold change was inactive: 0.89.

Question: With `O=C(OC1CN2CCC1CC2)C1c2ccccc2Oc2ccccc21` (stereo not given) as the molecule, how does the fold change read?
Answer: The fold change was inactive: 1.31.

Question: With `COc1ccc(C(=O)NCC2(N3CCCCC3)CCCCC2)c(OC)c1OC` as the molecule, how does the fold change read?
Answer: The fold change was inactive: 1.09.

Question: For `COc1ccc(NC2CCN(CCc3ccccc3)CC2)c(OC)c1`, which fold change is on record?
Answer: Its fold change is inactive: 0.86.

Question: Which fold change does the source give for `CCN1CCC(Nc2cccc(F)c2)CC1` here?
Answer: The fold change was inactive: 1.17.

Question: With `CN(C)c1ccc(C(=O)NCC2(N3CCCCC3)CCCCC2)cc1` as the molecule, how does the fold change read?
Answer: Its fold change is inactive: 0.89.

Question: For `Fc1ccccc1NC1CCN(Cc2ccccc2)CC1`, which fold change is on record?
Answer: Its fold change is inactive: 1.06.

Question: With `CCC(CO)(C(=O)OC1CN2CCC1CC2)c1ccccc1` (stereo not given) as the molecule, how does the fold change read?
Answer: Its fold change is inactive: 0.96.

Question: Which fold change does the source give for `COc1cc(OC)cc(C(=O)NCC2(N3CCOCC3)CCCCC2)c1` here?
Answer: Its fold change is inactive: 1.05.

Question: For `CCOc1ncccc1C(=O)NCC1(N2CCOCC2)CCCCC1`, which fold change is on record?
Answer: The fold change was inactive: 1.06.

Question: For `CC(C)(C)OC(=O)N1CCC(Nc2ccccc2)CC1`, which fold change is on record?
Answer: Its fold change is inactive: 1.19.

Question: Which fold change does the source give for `N/C(=N\O)c1c(N)no[n+]1[O-]` here?
Answer: Its fold change is inactive: 1.11.

Question: Which fold change does the source give for `O=C(OC1CN2CCC1CC2)C1c2ccccc2C=Cc2ccccc21` (stereo not given) here?
Answer: The fold change was inactive: 1.19.

Question: For `COc1ccc(C(=O)NCC2(N3CCOCC3)CCCCC2)cc1OC`, which fold change is on record?
Answer: Its fold change is inactive: 1.09.

Question: For `c1ccc(CN2CCC(Nc3ccccc3)CC2)cc1`, which fold change is on record?
Answer: The fold change was inactive: 1.11.

Question: Which fold change does the source give for `N#Cc1ccc(C(=O)NCC2(N3CCCCC3)CCCCC2)cc1` here?
Answer: The fold change was inactive: 0.82.
